Reference: EP0377489A2, “Purified C5a receptor from human polymorphonuclear leukocytes” (MERCK & CO. INC., priority 1989, dated 1990)

Tested on: solubilized C5a receptor
Assay: Inhibition of C5a binding to solubilized or purified receptor by nucleotides
Parameters: species or system human
Method: -All assays, except where noted, were performed at 4°C, with freshly thawed membranes or freshly prepared soluble receptor. To assay intact membranes, assay buffer (50 mM HEPES, pH 7.2, containing 1 mM CaCl₂, 5 mM MgCl₂, 0.1 mM PMSF, 0.1% bacitracin, and 0.5% bovine serum albumin), ¹²⁵I-C5a (typically 0.1 ng), and membrane (typically 0.5 µg) were added sequentially to a final volume of 200 µl. After incubation for 60-90 minutes 2 ml of assay buffer was added, the solution mixed, and the sample filtered through either a Whatman® GF/C filter treated with 0.33% polyethyleneimine or an untreated Millipore®GVWP filter. See (Bruns, R.F., Lawson-Wending, K., and Pugsley, T.A. (1983) Anal. Biochem. 132, 74-79). The filters were then counted in a Packard 460 γ-counter. Nonspecific backgrounds were determined by including 20 ng or more of unlabled C5a in the incubation mixture. To assay soluble receptor, assay buffer, solubilized membrane (typically 5 µl) and ¹²⁵I-C5a were mixed to a final volume of 200 µl and incubated for 15-30 minutes, at which time 500 µl of 0.1% bovine γ-globulin and 500 µl of 30% polyethylene glycol were added sequentially with vigorous mixing. After an additional 5 minutes, the sample was filtered and washed with 2 ml of a 9% PEG solution. […]

## Nc1ncnc2c1ncn2[C@@H]1O[C@H](COP(=O)(O)OP(=O)(O)OP(=O)(O)O)[C@@H](O)[C@H]1O [ATP]
  sensitivity of binding of C5a to the purified receptor to inhibition: not
